Experimental data taken from PubChem BioAssay (NCATS).
The entries are a selection whose mix differs from that of the whole data set. Records with an inconclusive call do not appear. Calls of active or inactive are those of the source. The call rests on the fitted dose curve; in most records, active means well fitted curve in the direction sought with a large enough effect; inconclusive means small, poorly fitted or top-dose-only effect, or another doubt; inactive means no such curve, though single readings can be large; an effect the other way counts as inactive or inconclusive.

Key:
[1] = Quantitative High-Throughput drug screen in 47 multiple myeloma cell lines against the NCATS MIPE library collection: ARP1_JJKsccF8 cell viability assay (AID 1918928;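 further: 100% = DMSO only wells and 0% = medium only wells; nearly all actives have a fitted effect of over 40% in size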); conditions: ARP1 myeloma cells viability, CellTiter-Glo ATP, 48 h; at 45.8 µM (top of the series)
[2] = Quantitative High-Throughput drug screen in 47 multiple myeloma cell lines against the NCATS MIPE library collection: Karpas620_DSMZ cell viability assay (AID 1918959); conditions: Karpas620 myeloma viability, CellTiter-Glo ATP luminescence, 48 h; further: potency means the concentration at half of the fitted maximal effect; nearly all actives have a fitted effect of over 30% in size
[3] = Quantitative High-Throughput drug screen in 47 multiple myeloma cell lines against the NCATS MIPE library collection: KMS12PE_JCRB cell viability assay (AID 1918972); conditions: KMS12PE myeloma viability, CellTiter-Glo ATP, 48 h; further: potency means the concentration at half of the fitted maximal effect; nearly all actives have a fitted effect of over 30% in size
[4] = Quantitative High-Throughput drug screen in 47 multiple myeloma cell lines against the NCATS MIPE library collection: MOLP8_DSMZ cell viability assay (AID 1918977); conditions: MOLP8 myeloma viability, CellTiter-Glo ATP luminescence, 48 h; at 45.8 µM (top of the series);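 further: 100% = DMSO-only wells and 0% = media-only wells without cells; nearly all actives have a fitted effect of over 45% in size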
[5] = Quantitative High-Throughput drug screen in 47 multiple myeloma cell lines against the NCATS MIPE library collection: NCIH929_DSMZ cell viability assay (AID 1918978); conditions: NCI-H929 myeloma viability, CellTiter-Glo ATP, 48 h; at 45.8 µM (top of the series); further: nearly all actives have a fitted effect of over 35% in size
[6] = Quantitative High-Throughput drug screen in 47 multiple myeloma cell lines against the NCATS MIPE library collection: MM1R_ATCC cell viability assay (AID 1918981); conditions: MM1R multiple myeloma cells, CellTiter-Glo viability, 48 h; at 45.8 µM (top of the series); further: nearly all actives have a fitted effect of over 35% in size
[7] = Quantitative High-Throughput drug screen in 47 multiple myeloma cell lines against the NCATS MIPE library collection: KMS28PE_JCRB cell viability assay (AID 1918983); conditions: KMS28PE multiple myeloma viability, CellTiter-Glo ATP, 48 h; at 45.8 µM (top of the series); further: nearly all actives have a fitted effect of over 35% in size
[8] = Quantitative High-Throughput drug screen in 47 multiple myeloma cell lines against the NCATS MIPE library collection: KMS34_JCRB cell viability assay (AID 1918985); conditions: KMS34 myeloma viability, CellTiter-Glo ATP luminescence, 48 h; at 45.8 µM (top of the series);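 further: 100% = DMSO-only wells and 0% = media-only wells; nearly all actives have a fitted effect of over 40% in size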
[9] = Quantitative High-Throughput drug screen in 47 multiple myeloma cell lines against the NCATS MIPE library collection: OCIMY7_PLB cell viability assay (AID 1918987); conditions: OCI-MY7 myeloma viability, CellTiter-Glo ATP, 48 h; at 45.8 µM (top of the series); further: nearly all actives have a fitted effect of over 65% in size
Procedure, shortened: (§1)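 Inhibition of viability over 48 h was scored by ATP content (CellTiter-Glo) in 500-cell wells. Zero and full viability were defined by media-only and DMSO-only wells.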

[10] = Quantitative High-Throughput drug screen in 47 multiple myeloma cell lines against the NCATS MIPE library collection: SKMM1_PLB cell viability assay (AID 1919863); conditions: SKMM1 myeloma viability, CellTiter-Glo ATP, 48 h; stronger effect = lower value; further: nearly all actives have a fitted effect of over 35% in size
[11] = Quantitative High-Throughput drug screen in 47 multiple myeloma cell lines against the NCATS MIPE library collection: U266_ATCC cell viability assay (AID 1919864); conditions: U266 myeloma viability, CellTiter-Glo ATP luminescence, 48 h; at 45.8 µM (top of the series)
Procedure, shortened: as §1

[12] = Quantitative High-Throughput drug screen in 47 multiple myeloma cell lines against the NCATS MIPE library collection: VP6_DJ cell viability assay (AID 1919867); conditions: ATP luminescence, 48 h; further: potency means the concentration at half of the fitted maximal effect; nearly all actives have a fitted effect of over 40% in size
Procedure, shortened: as §1

[13] = Quantitative High-Throughput drug screen in 47 multiple myeloma cell lines against the NCATS MIPE library collection: UTMC2_PLB cell viability assay (AID 1919868); conditions: CellTiter-Glo ATP luminescence, 48 h; at 45.8 µM (top of the series);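 further: 100% = DMSO-only wells and 0% = media-only wells without cells; nearly all actives have a fitted effect of over 55% in size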
[14] = Quantitative High-Throughput drug screen in 47 multiple myeloma cell lines against the NCATS MIPE library collection: PE2_PLB cell viability assay (AID 1919869); conditions: PE2_PLB myeloma cells viability, ATP luminescence, 48 h; at 45.8 µM (top of the series)
[15] = Quantitative High-Throughput drug screen in 47 multiple myeloma cell lines against the NCATS MIPE library collection: PCM6_Riken cell viability assay (AID 1919870); conditions: CellTiter-Glo ATP, 48 h; further: potency means the concentration at half of the fitted maximal effect; nearly all actives have a fitted effect of over 30% in size
[16] = Quantitative High-Throughput drug screen in 47 multiple myeloma cell lines against the NCATS MIPE library collection: RPMI8226_ATCC cell viability assay (AID 1919871); conditions: RPMI8226 myeloma viability, CellTiter-Glo ATP luminescence, 48 h; further: potency means the concentration at half of the fitted maximal effect; nearly all actives have a fitted effect of over 30% in size
[17] = Quantitative High-Throughput drug screen in 47 multiple myeloma cell lines against the NCATS MIPE library collection: OPM2_DSMZ cell viability assay (AID 1919872); conditions: OPM2 myeloma viability, CellTiter-Glo ATP luminescence, 48 h; at 45.8 µM (top of the series); further: nearly all actives have a fitted effect of over 30% in size
[18] = Quantitative High-Throughput drug screen in 47 multiple myeloma cell lines against the NCATS MIPE library collection: KMS11_JCRBsus cell viability assay (AID 1919873); conditions: KMS11 myeloma viability, CellTiter-Glo ATP luminescence, 48 h; further: potency means the concentration at half of the fitted maximal effect; nearly all actives have a fitted effect of over 50% in size
CRL-7250 = normal cell line; experiment: Cytotoxic Profiling of Annotated Libraries Using Quantitative High-Throughput Screening (AID 1296008); conditions: Five cell lines viability, CellTiter-Glo ATP luminescence, 48-72 h; stronger effect = lower value; further: on the % scale 0 is the no-effect control and ±100 the full control effect; nearly all actives have a fitted effect of over 60% in size
HaCat = experiment: as above; conditions: Five cell lines viability, CellTiter-Glo ATP luminescence, 48-72 h; stronger effect = lower value
KB-3-1 = experiment: as above; conditions: Five cell lines viability, CellTiter-Glo ATP luminescence, 48-72 h, stronger effect = lower value
NIH3T3 = experiment: as above; conditions: Five cell lines viability, CellTiter-Glo ATP luminescence, 48-72 h; stronger effect = lower value
MCC-13 = experiment: qHTS assay to identify novel small-molecules to repurpose for Merkel cell carcinoma treatment (AID 1296009); conditions: MCC and control cell lines, CellTiter-Glo viability, 72 h; at 46 µM (top of the series) unless noted; further: on the % scale 0 is the no-effect control and ±100 the full control effect; nearly all actives have a fitted effect of over 60% in size
MCC-26 = experiment: as above; conditions: MCC and control cell lines, CellTiter-Glo viability, 72 h; at 46 µM (top of the series) unless noted
MKL-1 = experiment: as above; conditions: MCC and control cell lines, CellTiter-Glo viability, 72 h; at 46 µM (top of the series) unless noted
MKL-2 = experiment: as above; conditions: MCC and control cell lines, CellTiter-Glo viability, 72 h; at 46 µM (top of the series) unless noted
UISO = experiment: as above; conditions: MCC and control cell lines, CellTiter-Glo viability, 72 h; at 46 µM (top of the series)
WaGa = experiment: as above; conditions: MCC and control cell lines, CellTiter-Glo viability, 72 h; at 46 µM (top of the series) unless noted

CCn1c(=O)n([C@@H]2CCN(CC3CCCCCCC3)C[C@@H]2CO)c2ccccc21
inactive: viability [1] 64% | viability (% of control) [4] 84.1% | viability, % of control [5] 103% | viability (% of control) [6] 87% | viability, % of DMSO control [7] 93% | viability, percent of control [8] 105% | viability (% of DMSO) [9] 118% | viability [10] 98.9% | viability (% of DMSO control) [11] 111% | viability (% of DMSO control) [13] 127% | viability (% of control) [14] 86.9% | viability (% of DMSO) [17] 96.2% | max response (CRL-7250) 3.27% | max response (HaCat) 1.17% | max response (KB-3-1) 4.58% | max response (NIH3T3) -10.2% | activity change, negative = cytotoxicity (MCC-13) 3.09% | activity change, negative = cytotoxicity (MCC-26) -11% | activity change, negative = cytotoxicity (MKL-1) -1.75% | activity change, negative = cytotoxicity (MKL-2) -7.48% | activity change, negative = cytotoxicity (UISO) -12.7% | activity change, negative = cytotoxicity (WaGa) -4.02%
active: Potency [2] 16.6 µM | Potency [3] 18.7 µM | Potency [12] 23.5 µM | Potency [15] 20.9 µM | Potency [16] 14.8 µM | Potency [18] 10.5 µM
